Measurements as given in PubChem BioAssay AID1447 (Sanford-Burnham Center for Chemical Genomics, 2008).
The entries are a selection whose mix differs from that of the whole data set. Calls of active or inactive are those of the source.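 The calls were made as follows: active = reconfirmed compounds whose average cytotoxicity reaches 50% or more; inactive = the rest.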

Assay: cytotoxicity in PPC-1 cells, confirmation, cytotoxicity control for TRAIL apoptosis potentiator project, cell-based, ATP content luminescence (AID 1447);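 also: 0% = DMSO-treated cells and 100% = wells holding medium but no cells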
Conditions: PPC-1 viability, ATPlite luminescence, overnight; at 5 µM; hits give high values

| Structure (SMILES) | cytotoxicity |
| --- | --- |
| C[N+]1=C2C=CC=CC=C2SC12C([N+](=O)[O-])=CC([N+](=O)[O-])=C[C-]2[N+](=O)[O-] (stereo unspecified) | inactive: 4.6% |
